AlphaSeq binding of Ab-14 heavy chain variants to a spike HR2 peptide

Values reported by Li et al. 2023, doi:10.1038/s41467-023-39022-2 (FLAb copy).

Binding partner: SARS-CoV-2 spike HR2 peptide, sequence PDVDLGDISGINAS.

The variants keep the light chain, the linker and the frameworks of Ab-14 (scFv order VH, three GGGGS repeats, VL).
VH: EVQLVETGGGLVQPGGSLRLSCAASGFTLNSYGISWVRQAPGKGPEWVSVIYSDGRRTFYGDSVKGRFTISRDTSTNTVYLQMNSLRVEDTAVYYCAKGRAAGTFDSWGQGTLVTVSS
VL: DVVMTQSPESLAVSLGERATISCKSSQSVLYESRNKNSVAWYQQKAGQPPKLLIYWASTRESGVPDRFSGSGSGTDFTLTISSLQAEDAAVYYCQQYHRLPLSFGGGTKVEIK

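The parent was found by panning a naive human phage display library on the peptide. This is the validation round: designs drawn from the data on random variants, tested in the same kind of assay. Several design methods are mixed in this list. The assay is AlphaSeq: two haploid yeast populations carry antibody and antigen on their surface. Binding brings cells together so that they mate, and sequencing counts the barcode pairs among the diploids. Each replicate has its own calibration line, from reference interactions of the BCL2 family. Each pool was mated in six replicate cultures.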

The parent's heavy chain CDRs are GFTLNSYGIS, VIYSDGRRTFYGDSVK, GRAAGTFDS; each variant's own CDRs replace them letter for letter.
Variants here have more than six changes.
Values are apparent Kd, the geometric mean of the replicates that gave a signal; lower means stronger binding.
An entry "not detected" has no value in the source: the pair was not observed among the diploids in any replicate. This suggests poor binding but is not conclusive.

CDR-H1	CDR-H2	CDR-H3	Kd	detected
GFDLNEYGIS	VIYADGVRQAYADSVK	GENAGTFDV	550 pM	6 of 6
GFDLAEYGIS	VIYADGSRTAYNQNVK	GLKGDSFDI	120 nM	1 of 6
GFDLDEYGIS	VIYADGRRTAYQDSVK	GQAAGTFDQ	360 pM	6 of 6
GFSLDEYGIS	VIYADGQRKSYSDNVK	GYQGSRVSL	120 nM	1 of 6
GFDLNEYGIS	VIYADGMRTAYIDSVK	GQNAGTFDL	480 pM	6 of 6
GFDLNEYGIS	VIYADGKRTFYSDSVK	GQLAGTFDS	170 pM	6 of 6
GFDLESYGIS	VIYADGSRTAYADSVK	GNVAGTFDV	390 pM	6 of 6
GFDLNEYGIS	VIYADGRRTFYSDSVK	GTVAGTFDN	340 pM	6 of 6
GFQINEYGIS	VIYADGLRAAYSQDVK	GMDTGNFVD	not detected	0 of 6
GFDLNEYGIS	VIYADGMRTAYSDDVK	GEVAGTFDV	300 pM	6 of 6
GFDINEYGIS	VIYADGRRTFYADSVK	GNTGGTFDL	1.7 nM	6 of 6
GFDLNEYGIS	VIYADGVRTAYADDVK	GGNAGTFDI	220 pM	6 of 6
GFDLESYGIS	VIYADGRRTAYADSVK	GNVAGTFDS	390 pM	5 of 6
GFNLNEYGIS	VIYADGVRTFYADSVK	GEVAGTFDV	330 pM	6 of 6
GFNIDEYGIS	VIYADGMRTFYSNAVK	GVVNGGTIS	not detected	0 of 6
GFNLDEYGIS	VIYADGMRTAYADSVK	GNTAGTFDV	580 pM	4 of 6
GFDVEEYGIS	VIYADGMRSSYSQSVK	GEYSGNIYV	1.5 µM	1 of 6
GFDLNEYGIS	VIYADGRRTFYADSVK	GEVGGTFDS	1.3 nM	6 of 6
GADLNEYGIS	VIYADGDRKAFQDDVK	GTNGGDFDE	not detected	0 of 6
GFDLNEYGIS	VIYADGMRVRYANNFK	GYLDKTGMV	not detected	0 of 6
GFDLEDYGIS	VIYADGMRTAYSDSVK	GQVAGTFDV	390 pM	6 of 6
GFDLNEYGIS	VIYADGMRTAYTDKVK	GNQAGTFDV	1.0 nM	6 of 6
GFDLNEYGIS	VIYADGMRTAYSDSVK	GENAGTFVQ	11 nM	6 of 6
GFDLEDYGIS	VIYADGRRTAYIDSVK	GETAGTFDV	88 pM	4 of 6
GFDLNEYGIS	VIYADGMRTFYADSVK	GNQAGTFDT	300 pM	6 of 6
GQDLNEYGIS	VIYADGVRTAYAISFK	GYHGSQFDI	not detected	0 of 6
GFGLDEYGIS	VIYADGMRANYATNVK	GYQAGVFST	not detected	0 of 6
GFDLDEYGIS	VIYADGVRTAYADSVK	GNNAGTFDM	300 pM	6 of 6
GFDLDEYGIS	VIYADGRRTFYADSVK	GEAAGTFDK	740 pM	6 of 6
GFSLDEVGIS	VIYADGRRAAYQDNVK	GENNVNFNE	670 pM	6 of 6
GFDLNEYGIS	VIYADGMRTAYTDSVK	GNQAGTFDT	250 pM	6 of 6
GEVLDEYGIS	VIYADGSRVAYTDAVK	GHHTGAFDM	not detected	0 of 6
GFDLDEYGIS	VIYADGTRSNYLDTVK	GHTGADFID	not detected	0 of 6
GFDLEEWGIS	VIYADGRRTAYADNVK	GMSGADLMF	76 nM	1 of 6
GFDLNEYGIS	VIYADGMRTFYADSVK	GEVAGTFDN	320 pM	6 of 6
GFNISEYGIS	VIYADGMRSEYADNVK	GHKGNAFID	not detected	0 of 6
GFDLEEMGVS	VIYADGIRFAYAQKVK	GQAAGTFDL	5.8 nM	6 of 6
GFDLNEYGIS	VIYADGKRTAYIDSVK	GEVAGTFDS	270 pM	6 of 6
GFDLDEYGIS	VIYADGRRTAYQDSVK	GNVAGTFDV	290 pM	6 of 6
GFDLNEYGIS	VIYADGMRTAYADDVK	GHNAGTFDV	150 pM	6 of 6
GFDLNEYGIS	VIYADGLRTAYVDSVK	GENAGTFDV	240 pM	6 of 6
GFDLNEYGIS	VIYADGMRTFYSDSVK	GEVAGTFDV	200 pM	6 of 6
GFDLDEYGIS	VIYADGKRTAYIDSVK	GQNAGTFDV	69 pM	6 of 6
GFNLDEYGIS	VIYADGRRTFYADSVK	GENAGTFLM	54 nM	4 of 6
GFDLNEYGIS	VIYADGIRTAYSDKVK	GMDGIVILF	not detected	0 of 6
DFNLNEYGIS	VIYADGVRASVLDKVK	GQISGTFDT	170 nM	6 of 6
GFDLNEYGIS	VIYADGKRTAYADSVK	GQTAGTFDV	180 pM	6 of 6
GKSLDDYGIS	VIYADGQRTSYTETVK	GNNGGVFIY	not detected	0 of 6
GFDLNEYGIS	VIYADGKRTFYADSVK	GEVAGTFDT	430 pM	6 of 6
GFQLNEYGIS	VIYADGKRSEYADKVK	GGINSSFLV	not detected	0 of 6
GDKLEDYGIS	VIYADGRRSAYVDNVK	GEYAGYFNV	130 nM	1 of 6
GFDLNEYGIS	VIYADGMRTAYTDSVK	GNQAGTFDV	230 pM	6 of 6
GFDLNEYGIS	VIYADGVRTFYADSVK	GEVAGTFDI	720 pM	6 of 6
GFDLNEYGIS	VIYADGKRTAYADSVK	GGVAGTFDV	160 pM	6 of 6
GFDLDEYGIS	VIYADGSRTAYADSVK	GNTAGTFDV	1.3 nM	6 of 6
GFDLNEYGIS	VIYADGVRTQYIDSVK	GEQAGTFDV	not detected	0 of 6
GFDLDEYGIS	VIYADGRRTFYQDSVK	GQAAGTFDL	1.7 nM	6 of 6
GFWLDEYGIS	VIYADGMRTAYKNSVK	GSFTYVMDV	not detected	0 of 6
GFDLDEYGIS	VIYADGRRTFYADSVK	GELAGTFDV	330 pM	6 of 6
GFDLDEYGIS	VIYADGRRTAYSDSVK	GENAGTFDV	490 pM	6 of 6
GFDLDEYGIS	VIYADGTRKMYLPTFK	GNHGGTFLM	not detected	0 of 6
GFDLNEYGIS	VIYADGMRTFYVDSVK	GETAGTFDV	450 pM	6 of 6
GFNLDEYGIS	VIYADGSRVAYADNVK	GLNGKIGDL	37 nM	1 of 6
GFDFNEYGIS	VIYADGKRTAYANNVK	GGKDAATDI	not detected	0 of 6
GEGLDEYGIS	VIYADGSRSSYTDKVK	GHNFGLKMV	not detected	0 of 6
GESLEEYGIS	VIYADGIREQYVDSVK	GEQGGFFVV	not detected	0 of 6
GFNLDEYGIS	VIYADGVRNFYSNSVK	GYGGIFMEL	not detected	0 of 6
GFNLDEYGVS	VIYADGNRTQYTEDVK	GTNVGAVDL	not detected	0 of 6
GQDLNEYGIS	VIYADGFRTAYADTVK	GTYGFMLDS	17 nM	3 of 6
GFDLNEYGIS	VIYADGIRTAYADDVK	GNAAGTFDS	260 pM	6 of 6
GFDLNEYGIS	VIYADGKRTAYANSVK	GNVAGTFDQ	180 pM	6 of 6
GFSLGEYGIS	VIYADGKRMVYADSVK	GSESGWFDI	not detected	0 of 6
GFDLNEYGIS	VIYADGRRTQYIDSVK	GEQAGTFDK	770 pM	6 of 6
GFNLGEYGIS	VIYADGRRTFYKDDVK	GHFIVYGVD	not detected	0 of 6
GFSLDEYGIS	VIYADGRRTFYQDDVK	GNVAGTFDI	190 pM	6 of 6
GFQLDEYGIS	VIYADGRRTFYQDSVK	GEVAGTFDV	53 pM	6 of 6
GDGLQEYGIS	VIYADGFRSSYANDVK	GTNTGIFMV	not detected	0 of 6
GFDLDEYGIS	VIYADGRRTAYTDSVK	GEVAGTFDL	270 pM	6 of 6

Excerpt, the first 12 entries:

| CDR-H1 | CDR-H2 | CDR-H3 | Kd | detected |
|---|---|---|---|---|
| GFDLNEYGIS | VIYADGVRQAYADSVK | GENAGTFDV | 550 pM | 6 of 6 |
| GFDLAEYGIS | VIYADGSRTAYNQNVK | GLKGDSFDI | 120 nM | 1 of 6 |
| GFDLDEYGIS | VIYADGRRTAYQDSVK | GQAAGTFDQ | 360 pM | 6 of 6 |
| GFSLDEYGIS | VIYADGQRKSYSDNVK | GYQGSRVSL | 120 nM | 1 of 6 |
| GFDLNEYGIS | VIYADGMRTAYIDSVK | GQNAGTFDL | 480 pM | 6 of 6 |
| GFDLNEYGIS | VIYADGKRTFYSDSVK | GQLAGTFDS | 170 pM | 6 of 6 |
| GFDLESYGIS | VIYADGSRTAYADSVK | GNVAGTFDV | 390 pM | 6 of 6 |
| GFDLNEYGIS | VIYADGRRTFYSDSVK | GTVAGTFDN | 340 pM | 6 of 6 |
| GFQINEYGIS | VIYADGLRAAYSQDVK | GMDTGNFVD | not detected | 0 of 6 |
| GFDLNEYGIS | VIYADGMRTAYSDDVK | GEVAGTFDV | 300 pM | 6 of 6 |
| GFDINEYGIS | VIYADGRRTFYADSVK | GNTGGTFDL | 1.7 nM | 6 of 6 |
| GFDLNEYGIS | VIYADGVRTAYADDVK | GGNAGTFDI | 220 pM | 6 of 6 |

Of ten entries with the parent sequence, four were seen in most replicates (averages 2.2 nM to 240 nM), three in one and three in none, so single entries are noisy.
Values of this round are not directly comparable with the first-round values of the same sequences.
The authors' rule: three or more of the six replicates give a measured affinity, fewer mean a poor binder.
Three control strains display no target. For all heavy chain designs, 1% of the pairings with them gave a signal, with a median of 120 nM and one signal in twenty below 7.0 nM, so weak values seen in few replicates may be background.